Test results as given in patent publication US20150320705A1, “METHOD OF INHIBITING OR TREATING AMYOTROPHIC LATERAL SCLEROSIS WITH PHENOXYALKYLCARBOXYLIC ACIDS” (priority 2014, published 2015).

System: SOD deficient flies
Parameters: species or system Drosophila
Conditions: in vivo
Protocol: Drosophila males will be collected and keep on fly food for 24 h. Then flies will be transferred to vials containing 3-mm paper filter disks saturated with 250 μl of 1% sucrose containing 2 mM paraquat or 1% sucrose, 2 mM paraquat and the tested compound. The vials will be stored at 25° C. in the dark, and flies are enumerated after 24 h.
Three replicas for each concentration will be performed in the same day and three replicas of the assay will be performed in different days.
The experiment includes the analysis of four compound concentrations (10, 100, 250 and 1000 μM) and will evaluate 360 flies for each concentration (8 replicates×3 days with 15 flies each one). Resistance to paraquat treatment will be indicative of positive activity of the compound tested. See, FIG. 2.
MN-001 was tested at concentrations of 0.08 mM, 0.8 mM, 8 mM (DMSO).

SMILES: Nc1nc2ccc(OC(F)(F)F)cc2s1 [riluzole]
- survival (or survivorship) percentages after paraquat exposure: increased this percentage
